Test results from ChEMBL document CHEMBL1127724, “Design and synthesis of 6-fluoropurine acyclonucleosides : potential prodrugs of acyclovir and ganciclovir” (Bioorg Med Chem Lett, 1994).

Legend:
[1] = substrate: Nc1nc(F)c2ncn(COC(CO)CO)c2n1; assay: (§1) Michaelis-Menten constant for Calf intestinal mucosa adenosine deaminase was determined
[2] = substrate: Nc1nc(N)c2ncn(COCCO)c2n1; assay: as §1
[3] = substrate: Nc1nc(F)c2ncn(COCCO)c2n1; assay: as §1
[4] = substrate: Nc1nc(Cl)c2ncn(COC(CO)CO)c2n1; assay: as §1
[5] = substrate: Nc1nc(Cl)c2ncn(COCCO)c2n1; assay: as §1
[6] = substrate: Nc1nc(N)c2ncn(COC(CO)CO)c2n1; assay: as §1
[7] = substrate: Nc1nc(F)c2ncn(COC(CO)CO)c2n1; assay: (§2) Vmax for Calf intestinal mucosa adenosine deaminase was determined
[8] = substrate: Nc1nc(N)c2ncn(COCCO)c2n1; assay: as §2
[9] = substrate: Nc1nc(F)c2ncn(COCCO)c2n1; assay: as §2
[10] = substrate: Nc1nc(Cl)c2ncn(COC(CO)CO)c2n1; assay: as §2
[11] = substrate: Nc1nc(Cl)c2ncn(COCCO)c2n1; assay: as §2
[12] = substrate: Nc1nc(N)c2ncn(COC(CO)CO)c2n1; assay: as §2

B1: Adenosine deaminase (Bos taurus), P56658 (protein)
chain: MAQTPAFNKPKVELHVHLDGAIKPETILYYGRKRGIALPADTPEELQNIIGMDKPLSLPEFLAKFDYYMPAIAGCREAVKRIAYEFVEMKAKDGVVYVEVRYSPHLLANSKVEPIPWNQAEGDLTPDEVVSLVNQGLQEGERDFGVKVRSILCCMRHQPSWSSEVVELCKKYREQTVVAIDLAGDETIEGSSLFPGHVKAYAEAVKSGVHRTVHAGEVGSANVVKEAVDTLKTERLGHGYHTLEDATLYNRLRQENMHFEVCPWSSYLTGAWKPDTEHPVVRFKNDQVNYSLNTDDPLIFKSTLDTDYQMTKNEMGFTEEEFKRLNINAAKSSFLPEDEKKELLDLLYKAYGMPSPASAEQCL
Km [1]: 542 µM
Km [2]: 268 µM
Km [3]: 341 µM
Km [4]: 290 µM
Km [5]: 103 µM
Km [6]: 554 µM
Vmax (uM min-1 unit-1) [7]: 0.00773
Vmax (uM min-1 unit-1) [8]: 0.000816
Vmax (uM min-1 unit-1) [9]: 0.012
Vmax (uM min-1 unit-1) [10]: 0.000326
Vmax (uM min-1 unit-1) [11]: 0.000341
Vmax (uM min-1 unit-1) [12]: 0.000104
